From US20170001988A1, “PIPERIDINE AND PIPERAZINE DERIVATIVES AND THEIR USE IN TREATING VIRAL INFECTIONS AND CANCER” (THE UNITED STATES OF AMERICA, AS REPRESENTED BY THE …, priority 2013, published 2017)

Assays:
in vitro = conditions: human
Huh7.5.1 cells = conditions: human

| SMILES | CC50 (in vitro) [µM] | CC50 (Huh7.5.1 cells) [µM] |
| --- | --- | --- |
| CCN1CCN(C(c2ccccc2)c2ccc(Br)cc2)CC1 (racemic) [Br, H, Et (R,S), 1-((4-Bromophenyl)(phenyl)methyl)-4-ethylpiperazine] | 35.2 ± 1.4 | – |
| Brc1ccc(C(c2ccccc2)N2CCNCC2)cc1 (centres unmarked) [Br, H, H, 1-((4-bromophenyl)(phenyl)methyl)piperazine] | – | 7.93 ± 0.83 |
| NCCOCCOCCOCCOCCN1CCN(C(c2ccc(Cl)cc2)c2ccc(Cl)cc2)CC1 [Cl, Cl, (CH2CH2O)4CH2CH2NH2, 14-(4-(bis(4-Chlorophenyl)methyl)piperazin-1-yl)-3,6,9,12-tetraoxatetradecan-1-amine] | – | 4.43 ± 0.12 |
| CN1CCN(C(c2ccc(Cl)cc2)c2ccc(Cl)cc2)CC1 [Cl, Cl, Me, 1-(bis(4-Chlorophenyl)methyl)-4-methylpiperazine] | – | 21.3 ± 2.3 |
| CN1CCN(C(c2ccccc2)c2ccccc2)CC1 [H, H, Me, 1-Benzhydryl-4-methylpiperazine] | > 100 | – |
